Measured values from US6835807B1, “Drug complex and drug delivery system” (Daiichi Pharmaceuticals Co., Ltd., priority 1998, dated 2004).

Columns and labels:
[1] = Release of the drug compound from the drug complex in buffer (Example 8); format: physicochemical; settings: for released amount of the drug (DX-8951), percentage of the drug in the drug complex used: 37° C., 50 μg/ml, after 20 hours
Method: (§1) (50 μg/ml). […] The released amount of the drug is expressed in percentage of the released amount of the drug to the amount of the drug in the drug complex used.

[2] = Release of the drug compound from the drug complex in Meth A homogenate (Example 8); format: in vitro ADME, murine; settings: for released amount of the drug (DX-8951), percentage of the drug in the drug complex used: 37° C., 50 μg/ml, after 20 hours; for release of the drug in words: weakly acidic homogenate
Method: as §1

[3] = Release of the drug compound from the drug complex in plasma (Example 8); format: in vitro ADME; settings: 37° C., 50 μg/ml, after 20 hours
Method: as §1

[4] = tested on: Meth A tumor-bearing mice; test: Maximum tolerated dose of the drug complexes of Examples 5, 6 and 7 (Example 9); format: in vivo, BALB/c mice; settings: single administration on the 13th day
Method: Meth A cells were transplanted into BALB/c mice to prepare Meth A tumor-bearing mice. On the 13th day, the drug complexes obtained in Examples 5, 6 and 7 were singly administered. After the administration, measurement of the body weight and observation of toxic death were made with time, and the maximum body-weight reduction rate and mortality were calculated, which are shown in Table 5. The dose is expressed in terms of the weight of anhydrous free base of DX-8951.
On the basis of the dose in which body weight reduction and death were observed, MTD of each complex were judged as follows.

Meth A cells = test: Antineoplastic activity of the complexes of Examples 1, 5 and 6 (Example 10); format: in vivo, BALB/c mice; settings: singly administered on the 7th day
Method: Meth A cells were transplanted into BALB/c mice to prepare Meth A tumor-bearing mice. On the 7th day after the transplantation, the drug complexes shown in Examples 1, 5 and 6 were singly administered, respectively. The weight of the tumor was measured on the 21th day to evaluate the inhibitory activity on the tumor and the toxicity. In the table, * represents significance in Dunnet's test (*** p<0.001, ** P<0.01, * P<0.05), the dose is expressed in terms of the weight of anhydrous free base of DX-8951, and IR represents the diminution rate of the tumor.

Carboxymethyldextran polyalcohol-Gly-Gly-Gly-Phe-NH-p-C6H4—CH2—O—CO-DX-8951 [Example 6]
released amount of the drug (DX-8951), percentage of the drug in the drug complex used ([1]; Buffer (pH 4.5)): 0.12% | released amount of the drug (DX-8951), percentage of the drug in the drug complex used ([1]; Buffer (pH 5.5)): 0.19% | released amount of the drug (DX-8951), percentage of the drug in the drug complex used ([1]; Buffer (pH 6.5)): 0.23% | release of the drug in words ([1]; buffer): hardly released | released amount of the drug (DX-8951), percentage of the drug in the drug complex used ([2]; Meth A homogenate (pH 4.5)): 15.48% | released amount of the drug (DX-8951), percentage of the drug in the drug complex used ([2]; Meth A homogenate (pH 5.5)): 4.97% | released amount of the drug (DX-8951), percentage of the drug in the drug complex used ([2]; Meth A homogenate (pH 6.5)): 1.78% | release of the drug in words [2]: rapidly released | released amount of the drug (DX-8951), percentage of the drug in the drug complex used [3]: 0.51% | BWLmax, maximum body-weight reduction rate ([4]; 1.25 mg/kg): 2.4% | N, mice died/mice used ([4]; 1.25 mg/kg): 0/3 | day when the maximum body-weight reduction was observed ([4]; 1.25 mg/kg): 14 days | BWLmax, maximum body-weight reduction rate ([4]; 2.5 mg/kg): 22.1% | N, mice died/mice used ([4]; 2.5 mg/kg): 0/3 | day when the maximum body-weight reduction was observed ([4]; 2.5 mg/kg): 20 days | BWLmax, maximum body-weight reduction rate ([4]; 5 mg/kg): 24.0% | N, mice died/mice used ([4]; 5 mg/kg): 3/3 | day when the maximum body-weight reduction was observed ([4]; 5 mg/kg): 18 days | BWLmax, maximum body-weight reduction rate ([4]; 10 mg/kg): 27.1% | N, mice died/mice used ([4]; 10 mg/kg): 3/3 | day when the maximum body-weight reduction was observed ([4]; 10 mg/kg): 18 days | MTD ([4]; dose as DX-8951 anhydrous free base): 2.5 mg/kg | BWLmax, maximum body-weight reduction rate (Meth A cells; 0.15625 mg/kg): <0% | N, mice died/mice used (Meth A cells; 0.15625 mg/kg): 0/6 | BWLmax, maximum body-weight reduction rate (Meth A cells; 0.3125 mg/kg): <0% | N, mice died/mice used (Meth A cells; 0.3125 mg/kg): 0/6 | BWLmax, maximum body-weight reduction rate (Meth A cells; 0.625 mg/kg): <0% | N, mice died/mice used (Meth A cells; 0.625 mg/kg): 0/6 | BWLmax, maximum body-weight reduction rate (Meth A cells; 1.25 mg/kg): <0% | N, mice died/mice used (Meth A cells; 1.25 mg/kg): 0/6 | BWLmax, maximum body-weight reduction rate (Meth A cells; 2.5 mg/kg): 25.9% | N, mice died/mice used (Meth A cells; 2.5 mg/kg): 3/6 | day when the maximum body-weight reduction was observed (Meth A cells; 2.5 mg/kg): 13 days

carboxymethyldextran polyalcohol-Gly-Gly-NH-p-C6H4—CH2—O—CO-DX-8951 [Example 7]
released amount of the drug (DX-8951), percentage of the drug in the drug complex used ([1]; Buffer (pH 5.5)): 0.12% | released amount of the drug (DX-8951), percentage of the drug in the drug complex used ([2]; Meth A homogenate (pH 4.5)): 0.44% | released amount of the drug (DX-8951), percentage of the drug in the drug complex used ([2]; Meth A homogenate (pH 5.5)): 0.37% | released amount of the drug (DX-8951), percentage of the drug in the drug complex used ([2]; Meth A homogenate (pH 6.5)): 0.55% | release of the drug in words [2]: rapidly released | released amount of the drug (DX-8951), percentage of the drug in the drug complex used [3]: 0.12% | N, mice died/mice used ([4]; 2.5 mg/kg): 3/3 | N, mice died/mice used ([4]; 5 mg/kg): 3/3 | N, mice died/mice used ([4]; 10 mg/kg): 3/3 | N, mice died/mice used ([4]; 20 mg/kg): 3/3 | N, mice died/mice used ([4]; 30 mg/kg): 3/3
